{"sequences": {"note": "Sequences of proteins named here, by UniProt entry; tags and fusion partners are left off. A change or cut given only in a name is not applied to a line headed by its entry.", "UniProt P02550": "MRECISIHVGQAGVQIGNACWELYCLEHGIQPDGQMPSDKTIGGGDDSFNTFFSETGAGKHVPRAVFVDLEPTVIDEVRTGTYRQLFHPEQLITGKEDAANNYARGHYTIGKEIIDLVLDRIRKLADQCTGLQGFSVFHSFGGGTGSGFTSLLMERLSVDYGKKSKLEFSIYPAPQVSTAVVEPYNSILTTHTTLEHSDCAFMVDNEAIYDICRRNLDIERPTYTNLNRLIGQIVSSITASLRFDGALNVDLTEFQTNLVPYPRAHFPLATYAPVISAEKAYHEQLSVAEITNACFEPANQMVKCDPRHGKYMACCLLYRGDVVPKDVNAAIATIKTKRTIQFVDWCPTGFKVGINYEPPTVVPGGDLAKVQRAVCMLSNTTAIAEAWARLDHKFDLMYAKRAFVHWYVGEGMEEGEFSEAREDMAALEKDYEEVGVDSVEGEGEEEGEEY"}, "source": "paper doi:10.1101/2024.11.13.623454"}
{"target": "pre-polymerized microtubules (porcine brain tubulin, GMPCPP) (porcine) (UniProt P02550)", "assay": "co-sedimentation; pre-polymerized GMPCPP microtubules and SSNA-1 construct, 20 μM each (1:1); SSNA-1 pre-sedimented and dialyzed against BRB10 (10 mM PIPES/KOH pH 6.8, 1 mM MgCl2, 1 mM EGTA); 4 min at room temperature; sedimented at 9,777g, 25 °C, 10 min; SDS-PAGE of supernatants and pellets", "units": {"concentration of SSNA-1 bound to microtubules (of 20 µM)": "µM", "percent of SSNA-1 co-sedimented with microtubules": "%"}}
{"substance": "SSNA-1(1-96) (domain or fragment)", "concentration of SSNA-1 bound to microtubules (of 20 µM)": 8.2, "percent of SSNA-1 co-sedimented with microtubules": 41}
{"substance": "SSNA-1(1-97) (domain or fragment)", "concentration of SSNA-1 bound to microtubules (of 20 µM)": 9.3, "percent of SSNA-1 co-sedimented with microtubules": 46}
{"substance": "SSNA-1(1-100) (domain or fragment)", "concentration of SSNA-1 bound to microtubules (of 20 µM)": 9.9, "percent of SSNA-1 co-sedimented with microtubules": 50}
{"substance": "SSNA-1(18-105) (domain or fragment)", "concentration of SSNA-1 bound to microtubules (of 20 µM)": 6, "percent of SSNA-1 co-sedimented with microtubules": 30}
{"substance": "SSNA-1(19-105) (domain or fragment)", "concentration of SSNA-1 bound to microtubules (of 20 µM)": 2.6, "percent of SSNA-1 co-sedimented with microtubules": 13}
{"substance": "SSNA-1(R18E/Y97E) (natural protein)", "concentration of SSNA-1 bound to microtubules (of 20 µM)": 2.4, "percent of SSNA-1 co-sedimented with microtubules": 12}
{"substance": "SSNA-1(Y15E/Y97E) (natural protein)", "concentration of SSNA-1 bound to microtubules (of 20 µM)": 5, "percent of SSNA-1 co-sedimented with microtubules": 25}
{"substance": "SSNA-1(Y97E) (natural protein)", "concentration of SSNA-1 bound to microtubules (of 20 µM)": 9.5, "percent of SSNA-1 co-sedimented with microtubules": 48}
